Earlier results as cited in patent US20240082463A1, “COATED MEDICAL PRODUCT” (HEMOTEQ AG, priority 2020, published 2024).
Where two headings read alike, the source gives them in different places.

Settings: cited from earlier work

c1ccccc1 [Benzene]
logKOW (Table 3, rounded orientation values): approx. 2.1
logKOW (Table 4): 2.1
